The text below walks through data of PubChem BioAssay AID784 (The Scripps Research Institute Molecular Screening Center, 2007).

Chains of the proteins cited; added tags and fusions are not shown. Lines headed by an entry give the natural chain unless they say otherwise; changes in a name come on top.
UniProt P04062: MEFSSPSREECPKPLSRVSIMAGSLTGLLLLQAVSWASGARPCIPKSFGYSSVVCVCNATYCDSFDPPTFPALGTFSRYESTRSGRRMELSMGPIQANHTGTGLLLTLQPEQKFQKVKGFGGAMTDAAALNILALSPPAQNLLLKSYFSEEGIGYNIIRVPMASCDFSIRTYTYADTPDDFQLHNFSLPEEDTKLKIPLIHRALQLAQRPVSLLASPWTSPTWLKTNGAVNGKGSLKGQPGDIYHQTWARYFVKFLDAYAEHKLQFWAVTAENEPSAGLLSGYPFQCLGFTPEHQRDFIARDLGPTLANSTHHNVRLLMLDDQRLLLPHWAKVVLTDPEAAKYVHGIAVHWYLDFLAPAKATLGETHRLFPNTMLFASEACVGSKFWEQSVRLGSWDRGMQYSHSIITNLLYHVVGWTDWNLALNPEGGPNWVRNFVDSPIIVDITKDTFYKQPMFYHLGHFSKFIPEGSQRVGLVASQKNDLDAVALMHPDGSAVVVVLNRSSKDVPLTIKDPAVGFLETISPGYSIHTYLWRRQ

The entries are a selection whose mix differs from that of the whole data set. Activity calls are given as the source filed them. Cut-off read from the data, not from the text of the source: active = activation above about 65%; inactive = the rest.

This assay concerns the target Lysosomal acid glucosylceramidase (Homo sapiens) (UniProt P04062). The experiment in a line: raising glucocerebrosidase activity, Gaucher cells – primary screen (AID 784).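 Note: 0% = vehicle wells and 100% = positive control wells.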 The note with it: L444P Gaucher fibroblasts, 4-MU-glucoside fluorescence, 3 days; at 10 µM; hits give high values.
For `Clc1n[nH]nc1-c1nn[nH][15n]1`, the activation was inactive: 1.06%. As for `O=P1(Nc2ccccn2)COc2ccccc2OC1`, the activation was inactive: 11.1%.

Turning to `O=P1(Nc2ccc(Br)cn2)COc2ccccc2OC1`, the activation is inactive: 6.36%. Take `O=P1(Nc2ncccn2)COc2ccccc2OC1`: the activation is inactive: 6.44%.

Regarding `O=C(OC1CN2CCC1CC2)C12CC3CC(CC(C3)C1)C2` (centres undefined), the activation was inactive: -22.1%. On to `O=C(COc1ccccc1)OC1CN2CCC1CC2` (centres undefined), for which the activation is inactive: -24%. As for `CCc1nc2c(n1)c1c(non1O)c1c2no[n+]1[O-]`, the activation was inactive: -44.7%.

Turning to `O=P1(Nc2nc3ccc(Cl)cc3s2)COc2ccccc2O1` (centres undefined), the activation is inactive: -15.5%. For `c1nnnn1CCn1cnnn1`, the activation is inactive: 11.9%.
